One substance from patent US20230202975A1 (Recordati Industria Chimica e Farmaceutica S.p.A., priority 2021, published 2023) can be followed below.

A short description of data set [1]: Accelerated stability (ICH), 40±2° C. and 75±5% R.H. In kind it is physicochemical.
The conditions of data set [2]: 25±2° C., 60±5% R.H., 0 months.

Where “and” joins values, the source holds several entries; their conditions need not be identical. Equal values may be shown once. Read-outs that look alike come from different tables or passages of the source.

Regarding Cysteamine Bitartrate [Example 4], the Loss on drying in data set [1] (0 months) was 0.04% and 0.15% and 0.23%; in data set [1] (6 months) it was 0.13% and 0.09% and 0.04%; in data set [2], 0.04% and 0.15% and 0.23%. Moreover, the “HPLC Related Substances %: Other impurities” value in data set [2] was <0.002% and <0.05% and <0.02%.
